{"source": "PubChem BioAssay AID2101", "about": "(National Center for Advancing Translational Sciences (NCATS), 2009)", "note": "Hit rate of the full screen: of about 330,000 compounds, about 300 (0.091%) were called active. Only results without a clear call are listed here; the source files them as inconclusive. The call rests on the fitted dose curve; in most records, active means well fitted inhibition curve with a large enough effect; inconclusive means small, poorly fitted or top-dose-only effect, or effect the other way, or another doubt; inactive means no such curve, though single readings can be large or run the other way. Potency means the concentration at half of the fitted maximal effect."}
{"target": "Lysosomal acid glucosylceramidase (Homo sapiens) (UniProt P04062)", "assay": "qHTS Assay for Inhibitors and Activators of N370S glucocerebrosidase as a Potential Chaperone Treatment of Gaucher Disease", "conditions": "N370S GC spleen homogenate, 4MU-glucoside fluorescence", "from_the_text": "NIH Chemical Genomics Center [NCGC]\nNIH Molecular Libraries Probe Production Centers Network [MLPCN]\nAssay Submitter (PI): Wei Zheng\nGlucocerebrosidase (GC) catalyzes the hydrolysis of beta-glucocerebroside to glucose and ceramide in lysosomes. Mutations in the glucocerebrosidase gene result in Gaucher disease, an autosomal recessive lysosomal storage disorder. Many of the mutations encountered in patients with Gaucher disease are missense alterations that may cause misfolding, decreased stability and/or mistrafficking of this lysosomal protein. […] These inhibitors include iminosugar analogs and three non-iminosugar inhibitors identified from a previous HTS of 62,000 compounds with the wild type recombinant enzyme. However, the enhancement of enzyme activity by the chaperone action of an enzyme inhibitor must be balanced against the direct inhibition of the enzyme. An enzyme activator could also function as a chaperone by binding to the enzyme and helping to correct its misfolding and mistrafficking. While activators for GC have not yet been identified, they may have better therapeutic potential than inhibitors. Therefore the discovery and development of chemical activators may provide a new strategy for the chaperone therapy.\nWe have optimized a new assay using N370S mutant GC derived from the spleen of a Gaucher patient. […] In addition, the MLPCN compound library has expanded, which increases the chance of finding new and better probes.\nNCGC Assay Protocol Summary:\nThis is a fluorogenic enzyme assay with 4-methylumbelliferyl-beta-D-glucopyranoside as the substrate and N370S glucocerebrosidase from human spleen homogenate as the enzyme preparation. Upon the hydrolysis of this fluorogenic substrate, the resulting product, […] which can be detected by a standard fluorescence plate reader. Data were normalized to the controls for basal activity (without enzyme) and 100% activity (with enzyme). The AC50 values were determined from concentration-response data modeled with the standard Hill equation.\nAssay buffer: 50 mM citric acid (titrated with potassium phosphate to pH 5.0), 100 mM potassium chloride, 10 mM sodium chloride, 1 mM magnesium chloride, 0.01% Tween-20.\n1536-well assay protocol:\n(1) Add 2 ul/well of spleen homogenate (27 ug final)\n(2) Add 23 nL compounds in DMSO solution. The final titration was 0.5 nM to 58 uM.\n(3) Add 2 ul of substrate (1 mM final)\n(4) Incubate at 37C for 40 min.\n(5) Add 2 ul stop solution (1M NaOH and 1M Glycine mixture, pH 10)\n(6) Detect the assay plate in a ViewLux plate reader (PerkinElmer) with Ex=365 nm and Em=440nm.\nKeywords: Glucocerebrosidase, beta-glucosidase, Gaucher Disease, pharmacological chaperone, chaperone therapy, high throughput screening, glucocerebrosidase inhibitor, MLSMR, MLSCN, NIH Roadmap, qHTS and NCGC"}
{"smiles": "Cc1ccccc1OP(=O)(Nc1ccccn1)Oc1ccccc1C", "Potency": "inconclusive: 17.8 µM"}
{"smiles": "CCOc1ccc(C2=NCC(CBr)S2)cc1", "note": "(stereo not drawn)", "Potency": "inconclusive: 3.98 µM"}
{"smiles": "Cc1cc(SC(NC(=O)c2ccccc2)C(Cl)(Cl)Cl)nc(C(C)C)n1", "note": "(stereo not drawn)", "Potency": "inconclusive: 39.8 µM"}
{"smiles": "CC(C)c1ccc(OP(=O)(Nc2ccccn2)Oc2ccccc2F)cc1", "note": "(stereo not drawn)", "Potency": "inconclusive: 17.8 µM"}
{"smiles": "O=[N+]([O-])c1cc([N+](=O)[O-])c(-c2ccn[nH]2)s1", "Potency": "inconclusive: 39.8 µM"}
{"smiles": "COc1cc(C2NCCC3(OCCO3)C2(C)C)cc(OC)c1OC", "note": "(stereo not drawn)", "Potency": "inconclusive: 4.47 µM"}
{"smiles": "CCOP1(=S)c2c(C)nn(CCC#N)c2N=C(c2ccccc2F)N1C", "note": "(stereo not drawn)", "Potency": "inconclusive: 44.7 µM"}
{"smiles": "CCC1=CC2Cc3nc4ccc(Cl)cc4c(N)c3C(C1)C2", "note": "(stereo not drawn)", "Potency": "inconclusive: 28.2 µM"}
